{"source": "patent US20200352905A1", "about": "“6-(2,4-DICHLOROPHENYL)-5-[4-[(3S)-1-(3-FLUOROPROPYL)PYRROLIDIN-3-YL]OXYPHENYL]-8,9-DIHYDRO-7H-BENZO[7]ANNULENE-2-CARBOXYLIC ACID FOR USE IN METASTATIC OR ADVANCED BREAST CANCER PATIENTS” (SANOFI, priority 2019, published 2020)", "origin": "cited, not measured here", "tested_on": "CYP3A", "details": "in vivo, po; cited from earlier work", "data": [{"compound": "C[C@@H](Oc1cc(-c2cnn(C3CCNCC3)c2)cnc1N)c1c(Cl)ccc(F)c1Cl", "note": "[Crizotinib]", "values": [{"measurement": "AUC Ratio", "value": 3.65}]}]}
